# Yeast mating assay B: variants of the scFv Ab-14

Source: Li et al. 2023 (doi:10.1038/s41467-023-39022-2), MIT Lincoln Laboratory and A-Alpha Bio; data file from the FLAb repository.

Antigen: PDVDLGDISGINAS, a 14-residue peptide of the SARS-CoV-2 spike HR2 region.

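The starting antibody came from a phage panning campaign against this peptide. This is the validation round: designs drawn from the data on random variants, tested in the same kind of assay. Their group label is 14L_En_HC (En: ensemble of fine-tuned language models; HC: hill climbing; a sequence that several methods proposed may carry one label only). AlphaSeq pools MATa yeast showing the antibodies with MATalpha yeast showing the peptide. The frequency of each diploid, read from paired DNA barcodes, reflects how well the two displayed proteins bind. The ratio of observed to expected reads was calibrated, replicate by replicate, on BCL2-family standards whose Kd was known from biolayer interferometry. There are six technical replicates.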

Parent scFv Ab-14: VH joined to VL by a (GGGGS)3 linker. Changes lie in the light chain CDRs alone.
VH: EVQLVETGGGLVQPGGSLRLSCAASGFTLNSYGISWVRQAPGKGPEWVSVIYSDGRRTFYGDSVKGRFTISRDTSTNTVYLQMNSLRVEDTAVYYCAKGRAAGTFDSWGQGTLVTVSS
VL: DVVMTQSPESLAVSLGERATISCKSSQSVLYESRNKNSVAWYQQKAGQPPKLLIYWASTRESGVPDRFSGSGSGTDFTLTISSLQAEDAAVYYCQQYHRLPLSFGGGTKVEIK

Each variant is given by its three light chain CDRs, as the data file delimits them; those of the parent are KSSQSVLYESRNKNSVA, WASTRES, QQYHRLPLS.
Numbers give log10(Kd / nM), so 0 is 1 nM and 3 is 1 µM. Smaller is tighter.
"ND" marks a missing value. The strain was present, yet no cells mated with the target were sequenced in that replicate, which points to weak or no binding.
The authors averaged sequences with at least three values out of six and counted those with two or fewer as poor binders.
A sequence measured in both rounds can read differently, since the two assays cover different ranges.
The parent sequence was in this pool as ten entries: three were never detected, three once, and four in most replicates, with averages from 0.34 to 2.37.
Three control strains display no target. For all light chain designs, 4% of the pairings with them gave a signal, with a median of 2.64 and one signal in twenty below 1.59, so weak values seen in few replicates may be background. For each scFv, signals with the empty controls are counted beside the result, with their mean in brackets.

CDR-L1	CDR-L2	CDR-L3	log10 Kd (nM) by replicate	control signals
KLSQVTNSEHRNKNSIA	EMVTREK	QQYDRLPLF	0.63 / 1.05 / 1.06 / 0.85 / 1.33 / 1.37	0/18
KLSISMLHESINKHNVA	EVRTRES	QQYDRLPLS	0.97 / 1.25 / 0.86 / 0.47 / 1.01 / 2.18	0/18
KLLQEVTGHTRNRNSVA	HNSTRED	QQYDRLPLS	ND / 2.33 / ND / ND / ND / ND	2/18 (1.49)
MMSQMIEGLSTSKNPVA	QVSTREE	QQYHRLPLS	0.61 / 1.11 / 0.68 / 1.59 / 0.72 / 0.70	0/18
KLSISMLHESINKHSVA	EVRTREP	QQYDRLPLS	0.30 / 0.23 / 0.18 / 0.26 / 0.50 / 0.95	0/18
TISQSMMYLSNLKNSVA	QAETRES	QQYHRLPIS	0.75 / 0.26 / 0.04 / 0.13 / 0.21 / 0.55	0/18
MITAMLRGVGRDKNSVA	NAQTREK	QHYHRLPLS	ND / ND / ND / ND / ND / ND	0/18
KLYQSMGYLSHNKSSIA	DMSRREN	QQYHRLPLS	0.86 / 0.88 / 0.91 / 0.50 / 0.78 / 0.92	0/18
KLGYMTAIESRNLNSVA	QMDTRES	QQYDRLPLS	ND / ND / ND / ND / 0.73 / ND	0/18
KLLQNVWTEGRNRNNVA	HMDMRED	QQYWRLPLS	0.62 / 0.14 / 0.11 / 0.25 / 0.36 / 0.58	1/18 (2.48)
TLTQVQGMESHNHDNVA	DLSTRGS	QQYHRLPLS	-0.31 / 0.02 / -0.20 / -0.24 / -0.25 / -0.17	0/18
TIGQVMNYESRNINSVA	QTSTREE	QDYDRLPLS	ND / ND / 2.67 / ND / ND / ND	0/18
IIYESVGTLSRNKNSVA	DNSTRES	QQYDRLPLS	2.37 / 2.57 / 2.56 / 2.83 / ND / 3.00	1/18 (2.81)
HISQSVGMTSRNHNSVA	ENSTRED	QQYDRLPLS	2.12 / 2.09 / ND / 0.28 / 1.43 / 2.12	1/18 (1.90)
MIAESVGYQSRNKNSVA	DNSTRES	QCYDRLPLS	1.58 / 0.98 / 1.13 / 1.03 / 1.44 / 1.35	1/18 (2.89)
MITAMLRGVGRDKNSVA	NAQTREK	QHYNRLPLS	1.57 / 2.21 / 2.59 / 3.20 / 2.80 / 2.15	2/18 (2.68)
HISYSMQHLSKNKNSVA	NQQTREE	QQYHRLPLS	0.39 / 0.15 / -0.15 / 0.07 / 0.24 / 0.33	2/18 (3.19)
LISSVWDYGSRNYNSVA	QTSTREK	QQYDRLPLE	0.04 / 0.28 / 0.28 / 0.18 / 0.30 / 0.42	0/18
IISGVMLVESKHINSVA	NAETREY	QHYDRLPLS	1.61 / 2.16 / 1.48 / 1.04 / 0.95 / 1.37	1/18 (1.81)
KLLQSVQYGSRALNSVA	QMETRED	QQYHRLPLM	0.27 / 0.15 / 0.21 / 0.24 / 0.43 / 0.36	0/18
KITGMWTFESHQRNNIA	EESTRED	QSYHRLPLS	1.35 / 1.31 / 1.01 / 1.39 / 1.25 / 1.11	3/18 (2.87)
KISYMGEYFSTNHSSIA	QASTRMQ	QQYHRLPLS	ND / 1.14 / 1.94 / 2.89 / 1.88 / ND	0/18
MLLQATMYGERQRNSVA	HAQTRED	QQYHRLPLI	ND / ND / ND / 2.57 / ND / 2.44	0/18
NVGQSMDGESRNKNSVA	HQSTRED	QHYHRLPLS	1.94 / 1.44 / 1.85 / 2.18 / 2.02 / 2.12	3/18 (2.88)
NISESMYFQSVMKNNIA	EMSTRER	QHYHRLPLS	ND / ND / ND / 1.98 / ND / ND	1/18 (1.96)
MISDLTMGGSRNKNSVA	DLSTRGS	QQYHRLPLS	-0.01 / -0.05 / -0.38 / -0.38 / -0.30 / -0.12	0/18
KLLQTVMNGKRNRNNVA	HMTMRED	QQYFRLPLS	ND / 1.72 / ND / 3.94 / 2.19 / ND	0/18
KISMTYRYESQASNSIA	EMTTRAE	QSYHRLPLS	1.24 / 0.81 / 0.73 / 1.30 / 0.84 / 0.44	0/18
HISQMVMYGSCNKQNVA	QVSTREE	QQYHRLPLS	0.51 / 0.28 / 0.23 / 0.11 / 0.44 / 0.44	2/18 (3.17)
KLSVSWLFESIEKNSVA	ERSTREH	QDYNRLPLS	ND / -0.05 / ND / 0.17 / 1.36 / ND	0/18
QLYAVQDMTSKNSSNVA	EQSTREN	QQYHRLPLS	ND / 2.65 / ND / 2.85 / 1.76 / 2.39	0/18
KLREVQHLETKQRNNVA	DNDTREY	QDYYRLPLS	1.26 / ND / ND / 2.31 / ND / ND	0/18
KLGEATRFESSNKASIA	DNSTRES	QQYHRLPLS	0.86 / 0.55 / 0.61 / 0.56 / 0.55 / 1.15	0/18
SITQLVAYGSRNRNSVA	QMSTRES	QQYDRLPLS	0.42 / 0.40 / 0.02 / -0.11 / -0.28 / 0.13	0/18
KISQMSTIESISHNSVA	QTSTREK	QQYDRLPLS	-0.02 / 0.09 / 0.10 / 0.18 / 0.37 / 0.47	1/18 (1.99)
ILSQMLLTAGNKHNSVA	QANNRES	QQYHRLPLS	1.44 / 1.75 / 2.39 / 1.28 / 1.49 / 2.30	0/18
TISQSWFIESRNKNNVA	EMTTREN	QDYDRLPLS	ND / ND / ND / ND / ND / ND	0/18
HISQSVGMTSFNKNSVA	ENSTREA	QQYDRLPLS	1.68 / ND / 1.55 / 1.83 / 1.84 / 3.15	0/18
SLMQVGGYESNTHNSIA	DLRTRES	QQYHRLPLS	1.77 / 0.79 / 0.76 / 0.75 / 1.26 / 1.18	1/18 (2.02)
KLSQSVLFWGHAINSVA	EMATREN	QQYDRLPLS	1.07 / 0.72 / 0.79 / 0.69 / 0.85 / 1.11	2/18 (2.33)
KISQSFNVGTKNKNSLA	EMSTREF	QDYHRLPLS	ND / 0.64 / ND / 0.70 / ND / ND	0/18
TLTQVTMVESYNKNSVA	QANTRLE	QDYHRLPLS	2.57 / 1.77 / 1.95 / 2.60 / 1.62 / 2.42	1/18 (2.04)
MFSQLFMYGSRNYNSVA	QASTREE	QQYHRLPLI	0.22 / 0.31 / 0.59 / 0.55 / 0.64 / 0.74	1/18 (2.93)
KISMTYRYESQASNSIA	EMTTRAE	QSYHRLPLA	1.19 / 1.95 / ND / 1.32 / 1.05 / 0.74	0/18
KLYAMTMLESHDKNSIA	DLSTRGN	QQYHRLPLS	0.83 / 0.87 / 0.69 / 0.90 / 0.66 / 1.13	2/18 (1.97)

The 3 strongest on average among those seen in every replicate, once more:

CDR-L1	CDR-L2	CDR-L3	log10 Kd (nM) by replicate	control signals
MISDLTMGGSRNKNSVA	DLSTRGS	QQYHRLPLS	-0.01 / -0.05 / -0.38 / -0.38 / -0.30 / -0.12	0/18
TLTQVQGMESHNHDNVA	DLSTRGS	QQYHRLPLS	-0.31 / 0.02 / -0.20 / -0.24 / -0.25 / -0.17	0/18
SITQLVAYGSRNRNSVA	QMSTRES	QQYDRLPLS	0.42 / 0.40 / 0.02 / -0.11 / -0.28 / 0.13	0/18